Laboratory results reported in patent US10174040B2, “Pyrrolopyrimidine compound or salt thereof and compositions containing the pyrrolopyrimidine compound or salt thereof” (TAIHO PHARMACEUTICAL CO., LTD., priority 2014, dated 2019).

Columns and labels:
[1] = system: Human colon cancer HCT-116 cell lines; test: Antitumor effect on tumor cells transplanted into mice 2 (HCT-116, tumor volume); assay type: in vivo, BALB/cAJcl-nu/nu mice; conditions: HCT-116 in nude mice, hydrochloride compound of Example 55
Description: Human colon cancer HCT-116 cell lines were washed in PBS and suspended at a concentration of 4×10^7 cells/mL. […] TV (mm3)=(length×width^2)/2, wherein the unit of length and width is mm (equation D). When the TV reached 100 to 300 mm3, the animals were assigned to each group in accordance with a stratified randomization procedure. The day was considered day 1, the TV on the day was considered TV1, and the body weight on the day was considered BW1. A required amount of the test compound was weighed to prepare an administration solution.

[2] = Body weight change, antitumor test 2 (HCT-116 mice); assay type: in vivo, BALB/cAJcl-nu/nu mice; conditions: HCT-116 nude mice, Test Example 6
Description: Human colon cancer HCT-116 cell lines were washed in PBS and suspended at a concentration of 4×10^7 cells/mL.
TV (mm3)=(length×width^2)/2, wherein the unit of length and width is mm (equation D).
When the TV reached 100 to 300 mm3, the animals were assigned to each group in accordance with a stratified randomization procedure. The day was considered day 1, the TV on the day was considered TV1, and the body weight on the day was considered BW1.
A required amount of the test compound was weighed to prepare an administration solution.

Compound: CCOc1cccc(F)c1C#Cc1cn([C@@H]2O[C@H](CNS(N)(=O)=O)[C@@H](O)[C@H]2O)c2ncnc(N)c12 [Example 55, 4-Amino-7-[(2R,3R,4S,5R)-3,4-dihydroxy-5-[(sulfamoylamino)methyl]tetrahydrofuran-2-yl]-5-[2-(2-ethoxy-6-fluoro-phenyl)ethynyl]pyrrolo[2,3-d]pyrimidine]
- RTV comparison with Comparative Example ([1]; Aspin-Welch's t-test): significantly lower than that of the Comparative Example
- RTV15 comparison with control ([1]; Dunnett's test): significantly lower than that of the control
- change of the body weight compared with the control [2]: within an acceptable degree
